Laboratory results as given in patent publication US7456216B2, “Methods for the preparation and formulation of l-carnitine valproate salts” (BioLink Life Sciences, Inc., priority 2007, dated 2008).

Assay: Solubility in water or aqueous solutions
Type: physicochemical
Experimental: For example, L-carnitine calcium valproate of the present invention, a white solid, is recovered in greater than about 85% yields from aqueous alcohol solutions containing valproic acid, L-carnitine, and calcium ion (Ca^2+), each of which is added to the reaction in no particular order. Likewise, L-carnitine magnesium valproate of the present invention, a white solid, is recovered in greater than about 85% yield from aqueous alcohol solutions containing valproic acid, L-carnitine, and magnesium ion (Mg^2+), each of which is added to the reaction in no particular order. Each L-carnitine valproate salt thus obtained has a purity of greater than about 95%, is free of contaminating inorganic and organic salts and residual solvents, and is stable during storage in closed and sealed containers. Further, an L-carnitine valproate salt of the present invention readily dissolves in water or aqueous solutions to provide aqueous solutions having a valproate concentration in the range from about 10 mg/mL to about 150 mg/mL and near neutral pH.
In general, the solubilities of calcium or magnesium salts of organic acids in water or aqueous solutions vary unpredictably. […]

L-carnitine calcium valproate
Solubility in water or aqueous solutions: readily dissolved in water or aqueous solutions
